Laboratory results reported in patent US8063243B2, “Stable active compound complex of salts of o-acetylsalicylic acid with basic amino acids and glycine” (Bayer Pharma Aktiengesellschaft, priority 2005, dated 2011).

Settings: storage at 25° C./60% relative atmospheric humidity, versus Aspisol (commercial product until mid-2005)

## D,L-Lysine Acetylsalicylate with 10% Glycine [Example 1]
After 30 months
  Salicylic acid released relative to Aspisol: one third less
FIG. 3
  Stability (formation of salicylic acid) compared to Aspisol: considerably improved stability
